# Apparent affinities of Ab-91 variants for a coronavirus HR2 peptide

Data: MIT Lincoln Laboratory AlphaSeq set, Engelhart et al. 2022, doi:10.1038/s41597-022-01779-4, as distributed in FLAb.

Target peptide (SARS-CoV-2 spike, HR2 region): PDVDLGDISGINAS

Ab-91 is the parent antibody, in scFv form: VL, then a 15-residue (Gly4Ser)3 linker, then VH. The light chain is unchanged in all variants.
VL: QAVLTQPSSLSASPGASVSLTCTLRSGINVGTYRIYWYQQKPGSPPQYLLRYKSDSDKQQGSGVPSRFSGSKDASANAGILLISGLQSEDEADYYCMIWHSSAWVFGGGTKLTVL
VH: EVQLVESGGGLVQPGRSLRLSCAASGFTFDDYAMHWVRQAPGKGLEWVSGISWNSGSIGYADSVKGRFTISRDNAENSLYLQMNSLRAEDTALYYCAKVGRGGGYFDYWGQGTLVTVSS

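The starting antibody came from a phage panning campaign against this peptide. AAYL51 was designed without a model: most single CDR substitutions and a random sample of double and triple ones. The scFvs were displayed on barcoded MATa yeast, the peptide on MATalpha yeast. The frequency of each diploid, read from paired DNA barcodes, reflects how well the two displayed proteins bind. The ratio of observed to expected reads was calibrated, replicate by replicate, on BCL2-family standards whose Kd was known from biolayer interferometry. There are three technical replicates.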

Each variant's VH is given in full. The read-out is the apparent dissociation constant on a log10 scale (nM): the lower, the stronger. Where no diploid with the target was found in that replicate, the entry reads "nd": below detection, most likely a poor binder, though not proof of it. For reference, the parent read 1.86 as the reference entry and 0.88 as a member of this library. Three control strains display no target. For library AAYL51, 21% of the pairings with them gave a signal, with a median of 4.54 and one signal in twenty below 3.26, so weak values seen in few replicates may be background. For each scFv, signals with the empty controls are counted beside the result, with their mean in brackets.

VH | log10 Kd (nM) by replicate | empty controls
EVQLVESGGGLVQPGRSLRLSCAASGFTFDIYMMHWVRQAPGKGLEWVSGILWNSGSIGYADSVKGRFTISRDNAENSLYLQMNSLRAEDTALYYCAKVGRGGGYFDYWGQGTLVTVSS | 5.43 / 5.56 / nd | 0 of 9
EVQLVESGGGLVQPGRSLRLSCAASGFTFDDYAMHWVRQAPGKGLEWVSGISWNSGSIGQADSVKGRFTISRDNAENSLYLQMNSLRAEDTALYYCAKVGRGEGYFDYWGQGTLVTVSS | 1.33 / 1.33 / 0.67 | 0 of 9
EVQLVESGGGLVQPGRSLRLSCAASGFTFDLYAMPWVRQAPGKGLEWVSGISWNSGSIGYADSVKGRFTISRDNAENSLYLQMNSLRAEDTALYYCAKVGRGGRYFDYWGQGTLVTVSS | 4.70 / nd / nd | 4 of 9 (4.80)
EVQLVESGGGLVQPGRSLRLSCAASGFTSDDYAMHWVRQAPGKGLEWVSGISWNSGSIGYADSVNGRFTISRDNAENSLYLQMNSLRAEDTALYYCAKVGRGGIYFDYWGQGTLVTVSS | 5.43 / nd / nd | 5 of 9 (4.44)
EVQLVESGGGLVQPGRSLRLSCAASGMTFDDYAMHWVRQAPGKGLEWVSGISWNSGSIGYADSYKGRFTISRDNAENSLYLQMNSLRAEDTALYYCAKVGMGGGYFDYWGQGTLVTVSS | nd / 5.30 / 3.72 | 2 of 9 (3.49)
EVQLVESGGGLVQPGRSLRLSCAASGFTFDDYAMHWVRQAPGKGLEWVSGISFNSKSIGYADSVKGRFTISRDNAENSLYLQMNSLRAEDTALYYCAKVGRGGYYFDYWGQGTLVTVSS | 2.85 / 2.62 / 2.56 | 2 of 9 (4.96)
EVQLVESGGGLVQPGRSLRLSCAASGFTFDDYAMHWVRQAPGKGLEWVSGISWNSGSIGSIDSVKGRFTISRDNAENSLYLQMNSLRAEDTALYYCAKVGRGGGYFDFWGQGTLVTVSS | 4.83 / 4.67 / nd | 3 of 9 (5.15)
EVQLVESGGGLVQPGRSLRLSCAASGFQFDDYAMHWVRQAPGKGLEWVSGISWNSGSAGYADSVEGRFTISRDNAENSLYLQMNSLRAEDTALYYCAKVGRGGGYFDYWGQGTLVTVSS | 1.12 / 1.08 / 0.29 | 6 of 9 (5.03)
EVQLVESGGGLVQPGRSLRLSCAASGFTFDDYAMHWVRQAPGKGLEWVSGISWNSKSIGYHDSVKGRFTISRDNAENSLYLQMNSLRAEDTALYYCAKVGRGGYYFDYWGQGTLVTVSS | 2.47 / 2.87 / 2.28 | 1 of 9 (3.29)
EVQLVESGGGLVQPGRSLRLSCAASGFTDDDYAMLWVRQAPGKGLEWVSGISWNSGSLGYADSVKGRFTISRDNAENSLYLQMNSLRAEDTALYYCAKVGRGGGYFDYWGQGTLVTVSS | nd / nd / nd | 0 of 9
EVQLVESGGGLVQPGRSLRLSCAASKFTFDDYAMHWVRQAPGKGLEWVSGISWNSGSIGYARSVKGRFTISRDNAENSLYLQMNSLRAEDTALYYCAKVGPGGGYFDYWGQGTLVTVSS | 3.26 / 4.08 / 3.82 | 4 of 9 (4.85)
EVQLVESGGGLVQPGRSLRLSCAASGFTFDDYATHWVRQAPGKGLEWVSGISWNSGSIGYADSVKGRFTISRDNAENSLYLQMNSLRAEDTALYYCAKVKRGGGYFDQWGQGTLVTVSS | 6.40 / nd / nd | 6 of 9 (4.32)
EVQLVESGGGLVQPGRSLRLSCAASGFRFDDYMMHWVRQAPGKGLEWVSGISWNSGSIGYADSVKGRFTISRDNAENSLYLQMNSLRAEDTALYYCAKVGRGGGYFDYWGQGTLVTVSS | 4.24 / 4.15 / 5.77 | 7 of 9 (5.29)
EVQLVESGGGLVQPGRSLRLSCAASGFTFDDYAMHWVRQAPGKGLEWVSGASWNSGSIGYANSVKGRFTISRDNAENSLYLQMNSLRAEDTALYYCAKVGRAGGYFDYWGQGTLVTVSS | nd / nd / nd | 1 of 9 (4.37)
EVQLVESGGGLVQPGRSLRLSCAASGFTFDDYAMHWVRQAPGKGLEWVSGISWNSQSIWYADSVEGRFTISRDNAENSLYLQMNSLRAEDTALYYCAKVGRGGGYFDYWGQGTLVTVSS | nd / nd / nd | 0 of 9
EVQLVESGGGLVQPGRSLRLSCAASGFTFDDYAMHWVRQAPGKGLEWVSGISWNSGSIGYTDGVKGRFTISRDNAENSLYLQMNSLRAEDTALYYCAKVGRGGGYSDYWGQGTLVTVSS | nd / nd / nd | 0 of 9
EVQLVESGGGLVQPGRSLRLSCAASGFTFDDYSMHWVRQAPGKGLEWVSKISWNSGSIGYADGVKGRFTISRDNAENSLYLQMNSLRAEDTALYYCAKVGRGGGYFDYWGQGTLVTVSS | 3.50 / nd / nd | 1 of 9 (3.96)
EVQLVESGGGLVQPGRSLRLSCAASGFTFDDYAMHWVRQAPGKGLEWVSGISWNSGWIGYADSVKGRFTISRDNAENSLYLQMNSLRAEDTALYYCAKVGVMGGYFDYWGQGTLVTVSS | nd / nd / nd | 2 of 9 (3.34)
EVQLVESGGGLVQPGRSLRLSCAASGFTFDDLAMHWVRQAPGKGLEWVSGISWNSGSIGYADSVKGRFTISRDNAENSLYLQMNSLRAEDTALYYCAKVGAGGGYFDYWGQGTLVTVSS | 5.84 / 5.84 / 4.67 | 9 of 9 (5.87)
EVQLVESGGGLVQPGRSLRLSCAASGFTFWDYAMHWVRQAPGKGLEWVSGISWNSGSIGYADSVKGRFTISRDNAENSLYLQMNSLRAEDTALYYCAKVGRGGCYFSYWGQGTLVTVSS | nd / nd / nd | 1 of 9 (3.93)
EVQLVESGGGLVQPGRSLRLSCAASGFTFLDYAMHWVRQAPGKGLEWVSGISWNSGSIRYAQSVKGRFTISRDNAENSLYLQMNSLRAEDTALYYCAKVGRGGGYFDYWGQGTLVTVSS | 4.72 / nd / nd | 1 of 9 (2.40)
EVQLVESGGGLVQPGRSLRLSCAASGFTFDDYAMMWVRQAPGKGLEWVSGISWNSGSIGYADSVKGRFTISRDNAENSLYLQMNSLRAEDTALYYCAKVGRGGGYFDFWGQGTLVTVSS | nd / 3.84 / nd | 3 of 9 (4.30)
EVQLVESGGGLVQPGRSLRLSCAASGFHFDDYAMHWVRQAPGKGLEWVSGISWNSGSIHYADSVKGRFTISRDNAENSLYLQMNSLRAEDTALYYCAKMGRGGGYFDYWGQGTLVTVSS | nd / nd / nd | 1 of 9 (2.38)
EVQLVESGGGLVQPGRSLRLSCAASGFTFDDYAMHWVRQAPGKGLEWVSGISWNSGSIGYVDSIKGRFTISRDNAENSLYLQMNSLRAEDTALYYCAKVGRGGMYFDYWGQGTLVTVSS | 3.46 / 3.68 / 4.54 | 5 of 9 (4.61)
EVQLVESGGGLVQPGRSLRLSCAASGFTFDDYAMHWVRQAPGKGLEWVSCISWNSGSIGYADSMKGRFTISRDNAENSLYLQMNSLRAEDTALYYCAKVGRGGGDFDYWGQGTLVTVSS | 3.79 / nd / 5.10 | 5 of 9 (4.38)